Source: patent US20030228621A1, “Common ligand universal enzyme assay and compositions for use therein” (priority 2002, published 2003)

Amino acid sequences for entries named in this document (tags omitted). A change or cut given only in a name is not applied to a line headed by its entry.
UniProt P0AEK4: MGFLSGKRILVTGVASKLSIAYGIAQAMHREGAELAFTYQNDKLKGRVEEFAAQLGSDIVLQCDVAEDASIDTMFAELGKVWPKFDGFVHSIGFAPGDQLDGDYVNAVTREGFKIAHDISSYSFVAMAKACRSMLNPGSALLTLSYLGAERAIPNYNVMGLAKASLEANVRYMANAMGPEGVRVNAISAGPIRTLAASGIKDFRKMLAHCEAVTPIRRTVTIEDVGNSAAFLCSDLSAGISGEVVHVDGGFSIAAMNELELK
UniProt P45568: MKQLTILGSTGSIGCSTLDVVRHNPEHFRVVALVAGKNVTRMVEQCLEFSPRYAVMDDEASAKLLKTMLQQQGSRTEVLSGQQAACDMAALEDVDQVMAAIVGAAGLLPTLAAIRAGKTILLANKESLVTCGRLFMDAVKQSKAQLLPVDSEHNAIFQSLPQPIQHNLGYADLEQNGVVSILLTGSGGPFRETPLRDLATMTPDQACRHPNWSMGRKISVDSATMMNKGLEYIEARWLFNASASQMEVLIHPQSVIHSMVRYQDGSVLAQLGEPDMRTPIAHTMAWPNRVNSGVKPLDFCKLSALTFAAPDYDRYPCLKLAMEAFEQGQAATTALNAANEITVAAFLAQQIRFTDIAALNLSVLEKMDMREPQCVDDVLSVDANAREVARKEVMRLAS

Columns and labels:
[1] = target: Enoyl-acyl carrier protein reductase (EACPR) (Escherichia coli, UniProt P0AEK4); experiment: Enzyme activity in presence and absence of varying concentration of dye, EACPR; type: biochemical; details: read-out: Inhibition (IC50, nM) EACPR
Method: (§1) In search for specific ligands with potent binding to several dehydrogenases we screened our internal enzyme panel. In brief, activity of the enzymes was measured in the presence and absence of the varying concentration of the dyes.

[2] = target: Deoxy-D-xylulose 5-phosphate reductoisomerase (DOXPR) (Escherichia coli, UniProt P45568); experiment: Enzyme activity in presence and absence of varying concentration of dye, DOXPR; type: biochemical; details: NADPH at sixteen times its Km; read-out: Inhibition (IC50, nM) DOXPR
Method: as §1
In this assay, the oxidoreductase common ligand (NADPH) was employed at a concentration sixteen times its Km value. Use of such a high concentration of oxidoreductase common ligand results in a calculated IC50 value at least 17-fold that of the dissociation constant (Kd).

Reactive Green 5
IC50 [1]: 210 nM | IC50 [2]: 270 nM
